Data taken from ChEMBL document CHEMBL4196126, “Optimization of 3-Pyrimidin-4-yl-oxazolidin-2-ones as Orally Bioavailable and Brain Penetrant Mutant IDH1 Inhibitors” (ACS Med Chem Lett, 2018).

Chains of the proteins cited; added tags and fusions are not shown. Residues count along the entry.
UniProt O75874, 2-414 R132H limits assumed: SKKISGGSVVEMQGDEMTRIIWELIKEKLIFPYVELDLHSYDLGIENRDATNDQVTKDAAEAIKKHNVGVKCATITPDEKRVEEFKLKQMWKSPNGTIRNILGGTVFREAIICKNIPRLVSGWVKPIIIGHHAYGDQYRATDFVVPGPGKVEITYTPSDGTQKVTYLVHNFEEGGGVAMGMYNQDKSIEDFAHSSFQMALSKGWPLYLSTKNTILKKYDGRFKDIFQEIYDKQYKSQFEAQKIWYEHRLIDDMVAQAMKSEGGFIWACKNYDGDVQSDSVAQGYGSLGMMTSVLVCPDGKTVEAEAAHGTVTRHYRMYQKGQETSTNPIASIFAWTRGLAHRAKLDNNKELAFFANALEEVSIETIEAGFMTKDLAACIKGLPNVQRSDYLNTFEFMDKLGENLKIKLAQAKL

Molecular target: Isocitrate dehydrogenase [NADP] cytoplasmic (Homo sapiens, UniProt O75874, R132H)
Experiment: Inhibition of IDH1 R132H mutant (unknown origin) using alphaKG as substrate in presence of NADPH by LC-MS/MS analysis

Compound: CC(C)[C@H]1COC(=O)N1c1ccnc(N[C@@H](C)c2nc(-c3ccc(Cl)cc3)no2)n1
- pIC50: 7.44

pIC50: −log10 of the molar value.
